From patent US20190345138A1, “HETEROCYCLIC AMIDES AS KINASE INHIBITORS” (GlaxoSmithKline Intellectual Property Development Limited, priority 2016, published 2019)
Read-outs that look alike come from different tables or passages of the source.

Biological target: T1, RIP1 kinase (Homo sapiens, UniProt Q13546)
T1 sequence (Q13546 1-375 limits assumed): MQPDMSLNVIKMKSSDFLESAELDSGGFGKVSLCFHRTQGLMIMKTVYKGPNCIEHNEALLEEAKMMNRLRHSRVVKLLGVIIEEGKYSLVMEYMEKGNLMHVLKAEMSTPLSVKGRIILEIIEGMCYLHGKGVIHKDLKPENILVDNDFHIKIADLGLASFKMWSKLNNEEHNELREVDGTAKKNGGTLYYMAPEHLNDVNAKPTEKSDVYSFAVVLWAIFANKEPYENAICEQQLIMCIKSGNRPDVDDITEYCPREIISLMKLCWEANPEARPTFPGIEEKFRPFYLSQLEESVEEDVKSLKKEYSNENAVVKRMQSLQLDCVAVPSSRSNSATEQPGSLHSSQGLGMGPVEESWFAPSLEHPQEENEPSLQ
Assay: fluorescent polarization based binding assay
Conditions: mean of a minimum of 2 experiments

| Structure (SMILES) | IC50 (pIC50, RIP1 kinase) [nM] | IC50 (RIP1 kinase, read-out: pIC50 (converted)) [nM] |
| --- | --- | --- |
| Cc1nnc(-c2cc(N3CCC(C(=O)N4N=CC[C@H]4c4ccccc4)CC3)ncn2)o1 [Example 129, (S)-(1-(6-(5-methyl-1,3,4-oxadiazol-2-yl)pyrimidin-4-yl)piperidin-4-yl)(5-phenyl-4,5-dihydro-1H-pyrazol-1-yl)methanone] | 1 to 31.6 |  |
| O=C(C1CCN(c2nccc(-c3ccccc3)n2)CC1)N1N=CCC1c1ccccc1 (racemic) [Example 4, (5-phenyl-4,5-dihydro-1H-pyrazol-1-yl)(1-(4-phenylpyrimidin-2-yl)piperidin-4-yl)methanone] |  | 1 to 31.6 |
